Consider 25 compounds from patent EP0567026B1, “4,1-Benzoxazepin derivatives as squalene synthase inhibitors and their use in the treatment of hypercholesteremia and as fungicides” (TAKEDA CHEMICAL INDUSTRIES, LTD., priority 1992, dated 1993).

Sequences of proteins named here, by UniProt entry; tags and fusion partners are left off.
UniProt Q02769, whole entry: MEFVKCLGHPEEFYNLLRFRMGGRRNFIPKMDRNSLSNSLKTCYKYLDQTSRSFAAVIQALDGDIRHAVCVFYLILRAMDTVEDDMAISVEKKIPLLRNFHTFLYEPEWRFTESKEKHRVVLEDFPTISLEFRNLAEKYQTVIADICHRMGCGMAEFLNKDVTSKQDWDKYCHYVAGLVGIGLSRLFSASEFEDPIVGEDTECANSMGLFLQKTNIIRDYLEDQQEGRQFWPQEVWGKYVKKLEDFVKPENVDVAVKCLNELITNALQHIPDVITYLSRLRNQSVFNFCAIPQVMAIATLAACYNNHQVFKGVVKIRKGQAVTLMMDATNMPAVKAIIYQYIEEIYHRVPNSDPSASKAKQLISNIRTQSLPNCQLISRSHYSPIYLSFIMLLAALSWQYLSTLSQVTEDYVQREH
UniProt P37268, whole entry: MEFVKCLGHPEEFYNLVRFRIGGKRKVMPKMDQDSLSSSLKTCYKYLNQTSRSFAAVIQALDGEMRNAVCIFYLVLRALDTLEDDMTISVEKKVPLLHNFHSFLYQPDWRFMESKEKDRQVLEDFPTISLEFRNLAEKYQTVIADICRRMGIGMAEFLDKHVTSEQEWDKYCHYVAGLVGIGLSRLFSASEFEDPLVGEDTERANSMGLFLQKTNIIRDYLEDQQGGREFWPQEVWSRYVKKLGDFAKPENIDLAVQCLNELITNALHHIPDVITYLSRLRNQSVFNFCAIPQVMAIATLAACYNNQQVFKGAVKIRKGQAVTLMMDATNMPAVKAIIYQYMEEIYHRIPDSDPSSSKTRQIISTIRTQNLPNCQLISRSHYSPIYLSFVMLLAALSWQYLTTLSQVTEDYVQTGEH

pIC50: −log10 of the molar value.

As a reminder, the pIC50 is −log10 of the IC50, conventionally taken in molar units.

One test addresses squalene synthetase (Rattus norvegicus, UniProt Q02769). Nature of the test: Squalene synthetase inhibitory activity, rat-derived enzyme (liver microsome fraction), [1-3H] farnesyl pyrophosphate. The settings on record: read-out: Rat Enzyme (squalene synthetase inhibitory activity, IC50), 5 uM [1-3H] farnesyl pyrophosphate, 37°C, 45 minutes. The procedure:
(§1) The squalene synthetase inhibitory activity was assayed as follows with the enzyme solutions described in the subsequent Experimental Examples 2 and 3.
(§2) More specifically, an enzyme solution (protein content 0.8 ug) prepared in Experimental Example 1 or 2 was added to a solution (total volume 50 ul)) containing 5 uM [1-^3H] farnesyl pyrophosphate (specific activity 25 uCi/mole), 1 mM NADPH, 5 mM MgCl2, 6 mM glutathione, a 100 mM buffer solution of potassium phosphate (pH 7.4) and a test drug (used as an aqueous solution or a DMSO solution), then the reaction was allowed to proceed at 37°C for 45 minutes. To the reaciton mixture was added 150 ul of a mixture of chloroform and methanol (1:2) to suspend the reaction, followed by adding 50 ul of chloroform and 50 ul of a 3N aqueous solution of sodium hydroxide. 50 ul of the chloroform layer (lower layer) containing the reaction mixture having squalene as the principal component and 3 ml of toluene-based liquid scintillator were mixed, and its radioactivity was determined by means of a liquid scintillation counter.
(§3) The squalene synthetase inhibitory activity was expressed in terms of the concentration inhibiting by 50% the radioactivity taken into the chloroform layer (IC50, molar concentration (M)).
An SD male rat (6 week old) was killed by bleeding, and its liver was excised. About 10 g of the liver was washed with a physiological saline solution cooled with ice, which was then homogenized in 15 ml of an ice-cooled buffer solution [100 mM potassium phosphate (pH 7.4), 15 mM nicotinamide, 2 mM MgCl2], followed by centrifugation for 20 minutes (4°C) with 10000 Xg. The supernatant layer was separated and subjected to further centrifugation for 90 minutes (4°C) with 105000 Xg. The sediment was then suspended in an ice-cooled 100 mM phosphate buffer solution (pH 7.4), which was again subjected to centrifugation for 90 minutes (4°C) with 105000 Xg. The sediment thus obtained (microsome fraction) was suspended in an ice-cooled 100 mM potassium phosphate buffer (pH 7.4) (about 40 mg/ml protein concentration, determined with BCA protein assay kit of Pias Co., Ltd.). This suspension was used as the enzyme solution.
(Liver microsomes are a subcellular fraction often used to study metabolism.)
In the case of `CC(C)(C)CN1C(=O)C(CC(=O)O)OC(c2ccccc2Cl)c2cc(Cl)ccc21` (stereo not shown), the pIC50 was 7.38.
Same read-out and setting: then `CC(C)(C)CN1C(=O)[C@@H](CC(=O)NCC(=O)O)O[C@H](c2ccccc2Cl)c2cc(Cl)ccc21`, with 7.80; and `CC(C)(C)CN1C(=O)[C@H](CC(=O)O)O[C@@H](c2ccccc2Cl)c2cc(Cl)ccc21`, with less than 5.00.
With `CC(C)CN1C(=O)[C@@H](CC(=O)O)O[C@H](c2ccccc2Cl)c2cc(Cl)ccc21`, the pIC50 was 7.37.
Take `CC(C)(C)CN1C(=O)[C@@H](CC(=O)NCC(=O)O)O[C@H](c2ccccc2Cl)c2cc(Cl)ccc21` (relative stereo): the negative-log IC50 (pIC50) is 7.55.
Regarding `CC(C)(C)CN1C(=O)[C@@H](CC(=O)NCc2nnn[nH]2)O[C@H](c2ccccc2Cl)c2cc(Cl)ccc21` (relative stereo), the pIC50 is 7.17.
As for `CC(C)(C)CN1C(=O)[C@@H](CC(=O)O)O[C@H](c2cccc3c2OCO3)c2cc(Cl)ccc21` (relative stereo), the pIC50 is 7.27.
Still for that read-out and setting: then `CC(C)(C)CN1C(=O)[C@@H](CC(=O)O)O[C@H](c2ccccc2Cl)c2cc(Br)ccc21` (relative stereo), with 7.10.
Regarding `CC(C)(C)CN1C(=O)[C@@H](CC(=O)O)O[C@H](c2ccccc2Cl)c2cc(Cl)ccc21` (relative stereo), the pIC50 was 7.14.
Turning to `CC(C)CN1C(=O)[C@@H](CC(=O)NCC(=O)O)O[C@H](c2ccccc2Cl)c2cc(Cl)ccc21` (relative stereo), the pIC50 was 7.46.
For `CC(C)CN1C(=O)[C@@H](CC(=O)NCc2nnn[nH]2)O[C@H](c2ccccc2Cl)c2cc(Cl)ccc21` (relative stereo), the pIC50 is 7.19.
Consider `CC(C)CN1C(=O)[C@@H](CC(=O)O)O[C@H](c2ccccc2Cl)c2cc(Cl)ccc21` (relative stereo), for which the pIC50 is 7.21.
Regarding `CC(C)N1C(=O)[C@@H](CC(=O)O)O[C@H](c2ccccc2Cl)c2cc(Cl)ccc21` (relative stereo), the pIC50 is 5.20.
Consider `CCC(CC)N1C(=O)[C@@H](CC(=O)NCC(=O)O)O[C@H](c2ccccc2Cl)c2cc(Cl)ccc21` (relative stereo), for which the pIC50 is 7.03.
Consider `CCCN1C(=O)[C@@H](CC(=O)O)O[C@H](c2ccccc2Cl)c2cc(Cl)ccc21` (relative stereo), for which the pIC50 was 6.27.
In the case of `CCOC(=O)CCNC(=O)C[C@H]1O[C@H](c2ccccc2Cl)c2cc(Cl)ccc2N(Cc2ccccc2)C1=O` (relative stereo), the pIC50 was 5.31.
Take `COc1cccc([C@H]2O[C@H](CC(=O)O)C(=O)N(CC(C)(C)C)c3ccc(Cl)cc32)c1OC` (relative stereo): the pIC50 is 7.42.
Take `COc1ccccc1[C@H]1O[C@H](CC(=O)O)C(=O)N(CC(C)(C)C)c2ccc(Cl)cc21` (relative stereo): the pIC50 was 7.31.
Take `O=C(O)CN(Cc1ccccc1)C(=O)C[C@H]1O[C@H](c2ccccc2Cl)c2cc(Cl)ccc2N(Cc2ccccc2)C1=O` (relative stereo): the pIC50 is 5.59.
With `O=C(O)CNC(=O)C[C@H]1O[C@H](c2ccccc2Cl)c2cc(Cl)ccc2N(Cc2ccccc2)C1=O` (relative stereo), the pIC50 was 5.14.
As to `O=C(O)C[C@H]1O[C@H](c2ccccc2Cl)c2cc(Cl)ccc2N(CC2CCCCC2)C1=O` (relative stereo), the pIC50 is 5.40.
For the compound `O=C(O)C[C@H]1O[C@H](c2ccccc2Cl)c2cc(Cl)ccc2N(CCc2ccccc2)C1=O` (relative stereo), the pIC50 was 5.33.
On the same count and under the same terms, then `O=C(O)C[C@H]1O[C@H](c2ccccc2Cl)c2cc(Cl)ccc2N(Cc2ccccc2)C1=O` (relative stereo), with 5.08.
Take `O=C(CC1OC(c2ccccc2Cl)c2cc(Cl)ccc2N(Cc2ccccc2)C1=O)N[C@H](Cc1c[nH]c2ccccc12)C(=O)O` (single isomer, unassigned) [W. Ex. 34-5]: the pIC50 is 5.37.
Same read-out and setting: then `O=C(CC1OC(c2ccccc2Cl)c2cc(Cl)ccc2N(Cc2ccccc2)C1=O)N[C@H](Cc1c[nH]c2ccccc12)C(=O)O` (single isomer, unassigned) [W. Ex. 34-6], with 5.47.

The target of another test is squalene synthetase (Homo sapiens, UniProt P37268). The test is described as follows: Squalene synthetase inhibitory activity, human-derived enzyme (HepG2 microsome fraction), [1-3H] farnesyl pyrophosphate. The settings on record: read-out: Man Enzyme (squalene synthetase inhibitory activity, IC50), 5 uM [1-3H] farnesyl pyrophosphate, 37°C, 45 minutes. The procedure:
as §1, §2, §3
Human hepatic carcinoma cells HepG2 (about 1 x 10^9 cells) obtained by incubation on a Dulbecco-modified Eagle's medium (37°C in the presence of 5% CO2) were suspended in 10 ml of an ice-cooled buffer solution [100 mM potassium phosphate buffer (pH 7.4), 30 mM nicotinamide and 2.5 mM MgCl2]. The cells were crashed by means of ultrasonication (for 30 seconds, twice). From the sonicate thus obtained, the microsome fraction was obtained by the same procedure as in Experiment Example 1, which was suspended in an ice-cooled 100 mM potassium phosphate buffer (pH 7.4) (about 4 mg/ml protein concentration). This suspension was used as the enzyme solution.
`CC(C)(C)CN1C(=O)C(CC(=O)O)OC(c2ccccc2Cl)c2cc(Cl)ccc21` (stereo not shown): the pIC50 is 7.80.
For the compound `CC(C)(C)CN1C(=O)[C@@H](CC(=O)NCC(=O)O)O[C@H](c2ccccc2Cl)c2cc(Cl)ccc21`, the pIC50 was 8.22.
As to `CC(C)CN1C(=O)[C@@H](CC(=O)O)O[C@H](c2ccccc2Cl)c2cc(Cl)ccc21`, the negative logarithm of the IC50 (pIC50) was 7.47.
For `CC(C)(C)CN1C(=O)[C@@H](CC(=O)NCC(=O)O)O[C@H](c2ccccc2Cl)c2cc(Cl)ccc21` (relative stereo), the pIC50 is 7.52.
Take `CC(C)(C)CN1C(=O)[C@@H](CC(=O)NCc2nnn[nH]2)O[C@H](c2ccccc2Cl)c2cc(Cl)ccc21` (relative stereo): the pIC50 was 7.74.
As for `CC(C)(C)CN1C(=O)[C@@H](CC(=O)O)O[C@H](c2cccc3c2OCO3)c2cc(Cl)ccc21` (relative stereo), the pIC50 was 7.66.
For the compound `CC(C)(C)CN1C(=O)[C@@H](CC(=O)O)O[C@H](c2ccccc2Cl)c2cc(Br)ccc21` (relative stereo), the pIC50 is 7.85.
With `CC(C)(C)CN1C(=O)[C@@H](CC(=O)O)O[C@H](c2ccccc2Cl)c2cc(Cl)ccc21` (relative stereo), the pIC50 is 7.62.
Take `CC(C)CN1C(=O)[C@@H](CC(=O)NCC(=O)O)O[C@H](c2ccccc2Cl)c2cc(Cl)ccc21` (relative stereo): the pIC50 was 7.92.
Consider `CC(C)CN1C(=O)[C@@H](CC(=O)NCc2nnn[nH]2)O[C@H](c2ccccc2Cl)c2cc(Cl)ccc21` (relative stereo), for which the pIC50 was 7.47.
Regarding `CC(C)CN1C(=O)[C@@H](CC(=O)O)O[C@H](c2ccccc2Cl)c2cc(Cl)ccc21` (relative stereo), the pIC50 was 7.47.
The same measure, in the same setting: then `CC(C)N1C(=O)[C@@H](CC(=O)O)O[C@H](c2ccccc2Cl)c2cc(Cl)ccc21` (relative stereo), with 5.19; and `CCC(CC)N1C(=O)[C@@H](CC(=O)NCC(=O)O)O[C@H](c2ccccc2Cl)c2cc(Cl)ccc21` (relative stereo), with 7.55.
For `CCCN1C(=O)[C@@H](CC(=O)O)O[C@H](c2ccccc2Cl)c2cc(Cl)ccc21` (relative stereo), the pIC50 was 6.15.
On to `CCOC(=O)CCNC(=O)C[C@H]1O[C@H](c2ccccc2Cl)c2cc(Cl)ccc2N(Cc2ccccc2)C1=O` (relative stereo), for which the pIC50 is 5.42.
Still for that read-out and setting: then `COc1cccc([C@H]2O[C@H](CC(=O)O)C(=O)N(CC(C)(C)C)c3ccc(Cl)cc32)c1OC` (relative stereo), with 7.74; and `COc1ccccc1[C@H]1O[C@H](CC(=O)O)C(=O)N(CC(C)(C)C)c2ccc(Cl)cc21` (relative stereo), with 7.40; and `O=C(O)CN(Cc1ccccc1)C(=O)C[C@H]1O[C@H](c2ccccc2Cl)c2cc(Cl)ccc2N(Cc2ccccc2)C1=O` (relative stereo), with 5.68.
As to `O=C(O)CNC(=O)C[C@H]1O[C@H](c2ccccc2Cl)c2cc(Cl)ccc2N(Cc2ccccc2)C1=O` (relative stereo), the pIC50 was 5.28.
As for `O=C(O)C[C@H]1O[C@H](c2ccccc2Cl)c2cc(Cl)ccc2N(CC2CCCCC2)C1=O` (relative stereo), the pIC50 is 5.42.
Take `O=C(O)C[C@H]1O[C@H](c2ccccc2Cl)c2cc(Cl)ccc2N(CCc2ccccc2)C1=O` (relative stereo): the pIC50 is 5.29.
In the case of `O=C(O)C[C@H]1O[C@H](c2ccccc2Cl)c2cc(Cl)ccc2N(Cc2ccccc2)C1=O` (relative stereo), the pIC50 is 5.17.
On to `O=C(CC1OC(c2ccccc2Cl)c2cc(Cl)ccc2N(Cc2ccccc2)C1=O)N[C@H](Cc1c[nH]c2ccccc12)C(=O)O` (single isomer, unassigned) [W. Ex. 34-5], for which the pIC50 was 5.37.
Turning to `O=C(CC1OC(c2ccccc2Cl)c2cc(Cl)ccc2N(Cc2ccccc2)C1=O)N[C@H](Cc1c[nH]c2ccccc12)C(=O)O` (single isomer, unassigned) [W. Ex. 34-6], the negative-log IC50 (pIC50) is 5.48.
